The record followed here is ChEMBL document CHEMBL1125045, “Hemicholinium-3 congeners as potential antagonists to organophosphate-induced toxicity” (1990).

As usually defined, the ED50 is the dose at which the effect has come halfway, by size or by number of responders. Read a high ED50 as a need for a large dose.

For this assay, the species on record is Mus musculus. Put plainly: Protecting activity after paraoxon induced toxicity.

As to `CNC(=O)Oc1ccc2c(c1)[C@]1(C)CCN(C)[C@@H]1N2C`, the median effective dose (ED50) was 0.02 µmol/kg.
